Reference: paper PMC8429249 (Journal of medicinal chemistry, 2021)

Tested on: HeLa cells
Details: 5 μM FAM-labeled peptide, 2 h, 1% FBS

With ΦOSQΦΠ-K-fArR-J-BBK-NH2 [Peptide B3-4] the “fold lower cellular entry efficiency than B4-27” value was 4 fold.
